Laboratory results from patent publication US7053101B2, “1,3,8-triazaspiro[4,5]decan-4-one derivatives useful for the treatment of ORL-1 receptor mediated disorders” (dated 2006).

Sequences of proteins named here, by UniProt entry; tags and fusion partners are left off. A change or cut given only in a name is not applied to a line headed by its entry.
UniProt P41146: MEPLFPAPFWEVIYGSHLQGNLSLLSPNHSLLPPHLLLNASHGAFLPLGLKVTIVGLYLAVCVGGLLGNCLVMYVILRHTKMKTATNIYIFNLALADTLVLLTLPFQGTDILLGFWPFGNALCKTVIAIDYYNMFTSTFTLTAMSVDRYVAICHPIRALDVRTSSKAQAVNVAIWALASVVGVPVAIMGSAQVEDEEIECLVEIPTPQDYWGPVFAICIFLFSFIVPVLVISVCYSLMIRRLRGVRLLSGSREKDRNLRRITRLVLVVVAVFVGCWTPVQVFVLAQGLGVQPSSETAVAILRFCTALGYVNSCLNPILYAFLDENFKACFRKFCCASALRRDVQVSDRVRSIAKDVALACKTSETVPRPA

Biological target: human nociceptin receptor (ORL-1) (Homo sapiens, UniProt P41146)
Assay: nociceptin receptor binding assay (125I-Tyr14-nociceptin displacement, HEK293 cell membranes)
Conditions: 125I-Tyr14-nociceptin 0.5 nM

O=C1NCN(Cc2ccccc2)C12CCN(Cc1ccccc1-c1ccco1)CC2
IC50: 1590 nM

O=C1NCN(Cc2ccccc2)C12CCN(Cc1ccccc1-c1cccs1)CC2
IC50: 2380 nM
